In paper PMC4390861:

Tested on: O=NO
Assay: cells, lysate or membranes
Conditions: whole-cell uptake, non-induced cells (no IPTG), pH 9.6, 30 °C, light

Substance: NitM (SynPCC7002_A0125) (Picosynechococcus sp. PCC 7002)
- Km: 8 µM
